The values below come from BindingDB's records for doi:10.1021/jm00054a015 (Merck Research Laboratories, 1993).

The target of the assay is T1, Dimer of Gag-Pol polyprotein [489-587] (Human immunodeficiency virus 1, UniProt P12497).
T1 construct: 489-587
In words: Protease Inhibition Assay. Particulars: pH 5.5; 30 °C. Here is the method: Sensitivity of HIV-1 protease activity to protease inhibitors was determined by a peptide substrate cleavage assay. Protease products were analyzed on a reverse-phase high-pressure liquid chromatograph.

Each structure is given as a SMILES string.

The molecule `CC(C)(C)NC(=O)C1C[C@@H]2CCCC[C@@H]2CN1C[C@@H](O)[C@H](Cc1ccccc1)NC(=O)O[C@@H]1CCOC1` (stereo partly drawn) [(3R)-oxolan-3-yl N-[(2S,3R)-4-[(4aS,8aS)-3-(tert-butylcarbamoyl)-decahydroisoquinolin-2-yl]-3-hydroxy-1-phenylbutan-2-yl]carbamate] gave an IC50 of 694 nM.

What is called IC50 is the concentration that inhibits the measured activity by half. Read a low IC50 as higher potency.
